Results reported in US20240124427A1, “HYDROXYHETEROCYCLOALKANE-CARBAMOYL DERIVATIVES” (Idorsia Pharmaceuticals Ltd, priority 2021, published 2024).

Amino acid sequences for entries named in this document (tags omitted). Residues count along the entry.
UniProt P09382, 2-135 limits assumed: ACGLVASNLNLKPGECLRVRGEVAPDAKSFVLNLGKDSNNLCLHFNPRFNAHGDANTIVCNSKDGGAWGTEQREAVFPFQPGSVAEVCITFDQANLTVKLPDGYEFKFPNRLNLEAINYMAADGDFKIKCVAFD

Target: human Gal-1 (hGal-1) (Homo sapiens, UniProt P09382)
Details: read-out: Gal-1 IC50; Activity on hGal-1; mean values of several measurements; mixture of diastereomers measured where not separated

Question: How did the IC50 turn out when `CO[C@@H]1[C@@H](n2cc(-c3cc(F)c(F)c(F)c3)nn2)[C@@H](O)[C@@H](CO)O[C@H]1C(=O)N(c1cc(Cl)cc(Cl)c1)[C@H]1CCNC[C@@H]1O` was run?
Answer: 49 nM

Question: With `CO[C@@H]1[C@@H](n2cc(-c3cc(F)c(F)c(F)c3)nn2)[C@@H](O)[C@@H](CO)O[C@H]1C(=O)N(c1cc(Br)cc(C#N)c1)[C@H]1CCNC[C@@H]1O` as the compound, how does the IC50 read?
Answer: 51 nM

Question: Which IC50 does the source give for `CO[C@@H]1[C@@H](n2cc(-c3cc(F)c(F)c(F)c3)nn2)[C@@H](O)[C@@H](CO)O[C@H]1C(=O)N(c1cc(C)cc(Br)c1)[C@H]1CCNC[C@@H]1O` here?
Answer: 76 nM

Question: `CO[C@@H]1[C@@H](n2cc(-c3cc(F)c(F)c(F)c3)nn2)[C@@H](O)[C@@H](CO)O[C@H]1C(=O)N(c1cc(C)cc(Br)c1)[C@@H]1CCNC[C@H]1O` was tested. Which IC50 did it give?
Answer: 1170 nM
